We go through one molecule from PubChem BioAssay AID434978 (Johns Hopkins Ion Channel Center, 2010).

The list shows a part of the results, in another mix than the full data. Some results for these compounds are left out of this collection, so the calls shown say nothing about other tests. Calls of active or inactive are those of the source.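 How the source made its calls: active means primary screen active whose calcium signal fell more than 3 SD beyond the full-serotonin control mean in both duplicate plates; inactive means the rest.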

A short description of the assay: serotonin-gated TRPC4 signal block – cell-based, second counter screen, HEK293 TRPC4/5HT1a, Fluo-4, counter-screen for TRPC4 inhibitor project, confirmation (AID 434978).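 Further: serotonin given first at submaximal then at maximal dose after compound preincubation.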 The note with it: Fluo-4 calcium flux, at 10 µM, serotonin added to trigger calcium flux. A general note: The purpose of a counterscreen is to sort out artefacts and off-target activity.
For the molecule `CN(C)c1ccc(C(=O)NCC2(N(C)C)CCCCC2)cc1`, the outcome was inactive.
